Laboratory results taken from paper PMC4076284, “A Characteristic Back Support Structure in the Bisphenol A-Binding Pocket in the Human Nuclear Receptor ERRγ” (PLoS ONE, 2014).

By UniProt entry, the sequences of proteins in these tests, tags left out. Where a name states a change or a piece, a line headed by the entry shows the natural chain unless it says otherwise. Residues count along the entry.
UniProt P62508, 222-458 L345A limits assumed: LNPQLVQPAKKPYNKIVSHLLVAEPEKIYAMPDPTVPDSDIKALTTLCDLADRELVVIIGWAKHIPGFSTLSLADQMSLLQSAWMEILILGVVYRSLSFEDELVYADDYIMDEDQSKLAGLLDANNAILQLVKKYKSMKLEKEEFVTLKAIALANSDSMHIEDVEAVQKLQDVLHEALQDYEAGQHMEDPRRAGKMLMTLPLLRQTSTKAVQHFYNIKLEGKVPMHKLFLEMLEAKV
UniProt P62508, 222-458 L345V limits assumed: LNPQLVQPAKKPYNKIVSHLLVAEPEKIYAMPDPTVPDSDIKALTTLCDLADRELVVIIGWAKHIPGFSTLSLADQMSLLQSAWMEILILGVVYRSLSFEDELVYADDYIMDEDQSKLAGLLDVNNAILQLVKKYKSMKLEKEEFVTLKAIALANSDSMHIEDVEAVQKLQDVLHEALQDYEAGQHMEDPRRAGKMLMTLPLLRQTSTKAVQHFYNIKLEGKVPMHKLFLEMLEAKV
UniProt P62508, 222-458 N346A limits assumed: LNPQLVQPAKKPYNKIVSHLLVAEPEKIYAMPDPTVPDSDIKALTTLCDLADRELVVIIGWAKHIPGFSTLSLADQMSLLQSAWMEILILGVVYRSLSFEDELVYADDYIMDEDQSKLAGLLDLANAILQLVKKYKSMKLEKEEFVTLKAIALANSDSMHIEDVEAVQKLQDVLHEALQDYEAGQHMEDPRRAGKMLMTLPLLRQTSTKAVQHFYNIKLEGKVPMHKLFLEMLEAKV
UniProt P62508, 222-458 N346G limits assumed: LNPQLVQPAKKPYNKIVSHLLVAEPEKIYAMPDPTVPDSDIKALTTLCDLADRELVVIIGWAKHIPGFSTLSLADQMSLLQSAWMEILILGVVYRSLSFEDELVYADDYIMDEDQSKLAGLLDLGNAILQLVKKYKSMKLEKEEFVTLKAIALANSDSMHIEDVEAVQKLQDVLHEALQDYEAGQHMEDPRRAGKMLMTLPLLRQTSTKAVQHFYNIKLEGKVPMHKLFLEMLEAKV
UniProt P62508, 222-458 N346Y limits assumed: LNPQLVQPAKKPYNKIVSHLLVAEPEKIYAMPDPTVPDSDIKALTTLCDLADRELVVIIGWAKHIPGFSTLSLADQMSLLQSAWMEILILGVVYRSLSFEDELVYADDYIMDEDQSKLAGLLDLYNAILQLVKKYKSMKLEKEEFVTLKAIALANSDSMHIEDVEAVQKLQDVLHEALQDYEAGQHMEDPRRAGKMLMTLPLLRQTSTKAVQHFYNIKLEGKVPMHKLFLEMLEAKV
UniProt P62508, 222-458 Y330A limits assumed: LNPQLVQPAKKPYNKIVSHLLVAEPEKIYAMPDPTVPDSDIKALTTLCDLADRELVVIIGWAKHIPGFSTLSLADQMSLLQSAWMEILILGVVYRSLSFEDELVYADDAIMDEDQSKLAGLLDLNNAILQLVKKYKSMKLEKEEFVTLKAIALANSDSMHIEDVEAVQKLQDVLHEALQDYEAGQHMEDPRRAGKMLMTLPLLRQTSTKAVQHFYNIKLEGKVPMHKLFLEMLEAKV
UniProt P62508, 222-458 Y330F limits assumed: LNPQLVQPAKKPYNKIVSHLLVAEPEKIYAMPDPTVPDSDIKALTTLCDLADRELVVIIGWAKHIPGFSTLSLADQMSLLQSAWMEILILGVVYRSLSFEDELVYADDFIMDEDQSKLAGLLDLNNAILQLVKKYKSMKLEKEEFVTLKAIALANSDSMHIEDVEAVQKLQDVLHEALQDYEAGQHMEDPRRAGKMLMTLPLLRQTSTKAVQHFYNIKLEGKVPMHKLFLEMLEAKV
UniProt P62508, 222-458 limits assumed: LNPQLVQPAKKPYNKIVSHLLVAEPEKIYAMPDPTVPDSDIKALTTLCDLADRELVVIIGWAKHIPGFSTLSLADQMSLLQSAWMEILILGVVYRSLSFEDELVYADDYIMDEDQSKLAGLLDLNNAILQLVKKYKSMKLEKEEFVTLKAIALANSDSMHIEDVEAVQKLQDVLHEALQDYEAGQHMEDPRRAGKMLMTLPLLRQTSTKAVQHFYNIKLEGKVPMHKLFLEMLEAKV
UniProt P62508, 222-458 H434A limits assumed: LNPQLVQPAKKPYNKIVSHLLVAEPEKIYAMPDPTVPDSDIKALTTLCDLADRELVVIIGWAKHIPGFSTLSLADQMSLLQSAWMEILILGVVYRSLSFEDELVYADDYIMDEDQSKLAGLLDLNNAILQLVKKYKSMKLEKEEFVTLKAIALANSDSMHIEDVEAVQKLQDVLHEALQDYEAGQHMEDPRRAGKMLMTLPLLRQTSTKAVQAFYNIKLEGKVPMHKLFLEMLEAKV
UniProt P62508, 222-458 H434F limits assumed: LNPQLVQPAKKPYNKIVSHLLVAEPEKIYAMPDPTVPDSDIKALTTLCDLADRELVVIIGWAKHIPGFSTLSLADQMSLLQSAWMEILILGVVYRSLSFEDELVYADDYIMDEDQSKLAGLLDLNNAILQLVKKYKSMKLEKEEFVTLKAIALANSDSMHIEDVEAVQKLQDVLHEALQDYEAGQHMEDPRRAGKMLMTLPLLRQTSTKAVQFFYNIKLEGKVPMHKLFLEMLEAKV
UniProt P62508, 222-458 I349A limits assumed: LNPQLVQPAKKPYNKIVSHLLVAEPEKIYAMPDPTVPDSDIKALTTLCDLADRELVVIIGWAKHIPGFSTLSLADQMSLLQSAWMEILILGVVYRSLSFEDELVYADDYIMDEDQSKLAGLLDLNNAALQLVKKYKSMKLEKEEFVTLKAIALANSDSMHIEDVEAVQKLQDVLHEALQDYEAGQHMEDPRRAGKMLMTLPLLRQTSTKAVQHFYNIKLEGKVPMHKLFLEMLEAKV
UniProt P62508, 222-458 I349L limits assumed: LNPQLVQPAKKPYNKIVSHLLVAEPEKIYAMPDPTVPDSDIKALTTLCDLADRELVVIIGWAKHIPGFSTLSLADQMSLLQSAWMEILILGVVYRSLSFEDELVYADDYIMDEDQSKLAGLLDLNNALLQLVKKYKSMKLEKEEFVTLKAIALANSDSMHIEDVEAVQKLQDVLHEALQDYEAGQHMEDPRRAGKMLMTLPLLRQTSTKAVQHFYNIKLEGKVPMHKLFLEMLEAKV
UniProt P62508, 222-458 I349V limits assumed: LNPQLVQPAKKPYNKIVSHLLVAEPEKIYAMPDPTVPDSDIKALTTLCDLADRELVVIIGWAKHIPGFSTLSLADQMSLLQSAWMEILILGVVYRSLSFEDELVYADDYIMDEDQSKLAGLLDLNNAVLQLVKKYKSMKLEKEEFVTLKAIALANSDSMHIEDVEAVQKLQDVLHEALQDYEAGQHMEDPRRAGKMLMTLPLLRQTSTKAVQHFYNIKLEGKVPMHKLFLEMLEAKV
UniProt P62508, 222-458 K430A limits assumed: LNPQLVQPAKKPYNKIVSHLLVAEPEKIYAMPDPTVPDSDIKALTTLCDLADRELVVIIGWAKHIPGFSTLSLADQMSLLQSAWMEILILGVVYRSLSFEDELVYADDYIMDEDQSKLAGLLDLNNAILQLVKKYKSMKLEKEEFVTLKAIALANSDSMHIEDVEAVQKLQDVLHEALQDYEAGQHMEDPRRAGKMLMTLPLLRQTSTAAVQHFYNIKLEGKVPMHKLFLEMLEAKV
UniProt P62508, 222-458 L265A limits assumed: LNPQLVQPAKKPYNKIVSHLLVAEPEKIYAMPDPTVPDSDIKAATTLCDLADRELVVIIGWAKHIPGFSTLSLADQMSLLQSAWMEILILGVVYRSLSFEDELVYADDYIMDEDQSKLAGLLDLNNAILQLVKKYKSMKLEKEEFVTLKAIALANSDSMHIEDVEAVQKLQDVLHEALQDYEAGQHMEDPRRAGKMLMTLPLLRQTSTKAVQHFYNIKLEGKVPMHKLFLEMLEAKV
UniProt P62508, 222-458 L324A limits assumed: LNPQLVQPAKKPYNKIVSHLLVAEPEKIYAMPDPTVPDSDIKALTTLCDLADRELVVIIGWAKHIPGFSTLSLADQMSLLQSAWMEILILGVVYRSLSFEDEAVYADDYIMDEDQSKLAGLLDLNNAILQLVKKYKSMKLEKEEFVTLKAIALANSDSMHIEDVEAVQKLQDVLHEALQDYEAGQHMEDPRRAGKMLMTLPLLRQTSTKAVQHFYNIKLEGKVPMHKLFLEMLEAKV
UniProt P62508, 222-458 L342A limits assumed: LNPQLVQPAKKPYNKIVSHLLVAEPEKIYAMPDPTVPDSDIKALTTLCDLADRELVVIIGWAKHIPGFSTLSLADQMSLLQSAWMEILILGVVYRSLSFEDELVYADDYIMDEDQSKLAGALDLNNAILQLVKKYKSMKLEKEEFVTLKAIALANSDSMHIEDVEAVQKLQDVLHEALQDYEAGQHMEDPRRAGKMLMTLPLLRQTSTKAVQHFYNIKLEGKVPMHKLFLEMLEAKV
UniProt P62508, 222-458 L342I limits assumed: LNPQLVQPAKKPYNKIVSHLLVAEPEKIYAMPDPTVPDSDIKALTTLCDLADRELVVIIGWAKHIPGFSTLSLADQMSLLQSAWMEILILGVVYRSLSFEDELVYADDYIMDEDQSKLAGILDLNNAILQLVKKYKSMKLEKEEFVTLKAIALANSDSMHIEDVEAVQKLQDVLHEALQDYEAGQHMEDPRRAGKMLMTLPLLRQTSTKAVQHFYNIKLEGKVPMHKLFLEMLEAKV
UniProt P62508, 222-458 L342V limits assumed: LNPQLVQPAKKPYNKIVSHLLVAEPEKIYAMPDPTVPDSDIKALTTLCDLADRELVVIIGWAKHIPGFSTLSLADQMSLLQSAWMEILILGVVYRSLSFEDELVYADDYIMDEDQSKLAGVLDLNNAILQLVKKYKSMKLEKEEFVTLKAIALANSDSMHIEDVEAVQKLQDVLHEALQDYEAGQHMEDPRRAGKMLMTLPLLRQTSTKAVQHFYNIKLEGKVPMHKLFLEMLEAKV
UniProt P62508, 222-458 L345I limits assumed: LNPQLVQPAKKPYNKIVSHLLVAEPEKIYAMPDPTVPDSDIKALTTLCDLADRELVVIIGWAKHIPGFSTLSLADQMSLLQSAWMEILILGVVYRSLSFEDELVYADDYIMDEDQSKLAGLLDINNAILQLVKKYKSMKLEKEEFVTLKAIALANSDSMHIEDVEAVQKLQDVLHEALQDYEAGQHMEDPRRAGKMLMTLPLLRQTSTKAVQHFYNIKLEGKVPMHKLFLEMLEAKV
UniProt P62508, 222-458 N346Q limits assumed: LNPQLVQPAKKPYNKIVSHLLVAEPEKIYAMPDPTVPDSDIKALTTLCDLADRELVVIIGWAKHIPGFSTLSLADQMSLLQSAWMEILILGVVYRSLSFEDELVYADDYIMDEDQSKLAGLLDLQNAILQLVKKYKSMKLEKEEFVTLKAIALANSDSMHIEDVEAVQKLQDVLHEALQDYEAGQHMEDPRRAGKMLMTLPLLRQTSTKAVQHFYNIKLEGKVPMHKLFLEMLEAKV

Columns and labels:
Conditions in all cases: tested as the radiolabelled form
ERRγ mutant receptors = assay: [^3H]BPA saturation and/or competitive binding: ranges stated over several ERRγ mutants or both assays
[1] = biological target: Tyr330Phe-ERRγ mutant receptor (GST-fused LBD) (Homo sapiens, UniProt P62508, Y330F); assay: Saturation binding assay using [^3H]BPA
[2] = biological target: Asn346Ala-ERRγ mutant receptor (GST-fused LBD) (Homo sapiens, UniProt P62508, N346A); assay: Saturation binding assay using [^3H]BPA
[3] = biological target: Leu345Val-ERRγ mutant receptor (GST-fused LBD) (Homo sapiens, UniProt P62508, L345V); assay: Saturation binding assay using [^3H]BPA
[4] = biological target: GST-fused wild-type ERRγ-LBD (Homo sapiens, UniProt P62508); assay: Saturation binding assay using [^3H]BPA
[5] = biological target: Leu345Ile-ERRγ mutant receptor (GST-fused LBD) (Homo sapiens, UniProt P62508, L345I); assay: Saturation binding assay using [^3H]BPA
[6] = biological target: Lys430Ala-ERRγ mutant receptor (GST-fused LBD) (Homo sapiens, UniProt P62508, K430A); assay: Saturation binding assay using [^3H]BPA
[7] = biological target: Tyr330Ala-ERRγ mutant receptor (GST-fused LBD) (Homo sapiens, UniProt P62508, Y330A); assay: Saturation binding assay using [^3H]BPA
[8] = biological target: Leu265Ala-ERRγ mutant receptor (GST-fused LBD) (Homo sapiens, UniProt P62508, L265A); assay: Saturation binding assay using [^3H]BPA
[9] = biological target: Leu324Ala-ERRγ mutant receptor (GST-fused LBD) (Homo sapiens, UniProt P62508, L324A); assay: Saturation binding assay using [^3H]BPA
[10] = biological target: Asn346Gln-ERRγ mutant receptor (GST-fused LBD) (Homo sapiens, UniProt P62508, N346Q); assay: Saturation binding assay using [^3H]BPA
[11] = biological target: Leu342Ile-ERRγ mutant receptor (GST-fused LBD) (Homo sapiens, UniProt P62508, L342I); assay: Saturation binding assay using [^3H]BPA
[12] = biological target: Ile349Val-ERRγ mutant receptor (GST-fused LBD) (Homo sapiens, UniProt P62508, I349V); assay: Saturation binding assay using [^3H]BPA
[13] = biological target: His434Ala-ERRγ mutant receptor (GST-fused LBD) (Homo sapiens, UniProt P62508, H434A); assay: Saturation binding assay using [^3H]BPA
[14] = biological target: Asn346Tyr-ERRγ mutant receptor (GST-fused LBD) (Homo sapiens, UniProt P62508, N346Y); assay: Saturation binding assay using [^3H]BPA
[15] = biological target: Leu342Ala-ERRγ mutant receptor (GST-fused LBD) (Homo sapiens, UniProt P62508, L342A); assay: Saturation binding assay using [^3H]BPA
[16] = biological target: Ile349Ala-ERRγ mutant receptor (GST-fused LBD) (Homo sapiens, UniProt P62508, I349A); assay: Saturation binding assay using [^3H]BPA
[17] = biological target: Ile349Leu-ERRγ mutant receptor (GST-fused LBD) (Homo sapiens, UniProt P62508, I349L); assay: Saturation binding assay using [^3H]BPA
[18] = biological target: Asn346Gly-ERRγ mutant receptor (GST-fused LBD) (Homo sapiens, UniProt P62508, N346G); assay: Saturation binding assay using [^3H]BPA
[19] = biological target: Leu345Ala-ERRγ mutant receptor (GST-fused LBD) (Homo sapiens, UniProt P62508, L345A); assay: Saturation binding assay using [^3H]BPA
[20] = biological target: His434Phe-ERRγ mutant receptor (GST-fused LBD) (Homo sapiens, UniProt P62508, H434F); assay: Saturation binding assay using [^3H]BPA
[21] = biological target: Leu342Val-ERRγ mutant receptor (GST-fused LBD) (Homo sapiens, UniProt P62508, L342V); assay: Saturation binding assay using [^3H]BPA

CC(C)(c1ccc(O)cc1)c1ccc(O)cc1 [BPA, bisphenol A] was tested, and the “Reduction in affinity vs wild-type” value (ERRγ mutant receptors; Ile349Ala mutant, saturation and competitive binding (Tables 1 and 2)) was 3-4 fold, the “Activity decrements vs wild-type” value (ERRγ mutant receptors; Ile349Val and Ile349Leu mutants, saturation binding (Table 1)) was 8-65% and the “Reduction in K d value vs wild-type” value ([1]; saturation binding) was “approximately 2 fold”. The “Receptor density for [^3H]BPA, B max” value [1] was 7.37±0.33 nmol/mg protein, the Specific binding ([2]; saturation binding) was “ca. 90 % of the total binding” and the “Receptor density for [^3H]BPA, B max” value [2] was 18.3±0.69 nmol/mg protein. The “Decrease in affinity vs wild-type” value ([3]; saturation binding) was 10 fold, the “Receptor density for [^3H]BPA, B max” value [3] was 7.72±0.55 nmol/mg protein and the “Receptor density for [^3H]BPA, B max” value [4] was 18.40±0.78 nmol/mg protein. For the same molecule, the “Receptor density for [^3H]BPA, B max” value [5] was 4.07±0.21 nmol/mg protein, the “Receptor density for [^3H]BPA, B max” value [6] was 4.34±0.44 nmol/mg protein and the “Reduction in K d value vs wild-type” value ([7]; saturation binding) was “more than 50 fold”. The “Receptor density for [^3H]BPA, B max” value [7] was 0.91±0.22 nmol/mg protein, the “Receptor density for [^3H]BPA, B max” value [8] was “NSB” and the “Receptor density for [^3H]BPA, B max” value [9] was “NSB”. The “Receptor density for [^3H]BPA, B max” value [10] was 6.78±0.33 nmol/mg protein, the “Receptor density for [^3H]BPA, B max” value [11] was 2.75±0.50 nmol/mg protein and the “Receptor density for [^3H]BPA, B max” value [12] was 8.84±0.86 nmol/mg protein. For the same molecule, the “Receptor density for [^3H]BPA, B max” value [13] was “NSB”, the Specific binding ([14]; saturation binding) was “ca. 60 % of the total binding” and the “Receptor density for [^3H]BPA, B max” value [14] was 9.37±0.42 nmol/mg protein. For the same molecule, the “Receptor density for [^3H]BPA, B max” value [15] was “NSB”, the “Receptor density for [^3H]BPA, B max” value [16] was 5.92±0.12 nmol/mg protein and the “Receptor density for [^3H]BPA, B max” value [17] was 9.33±1.23 nmol/mg protein. The Specific binding ([18]; saturation binding) was “ca. 70 % of the total binding”, the “Receptor density for [^3H]BPA, B max” value [18] was 11.8±0.57 nmol/mg protein and the “Drop in receptor affinity vs wild-type” value ([19]; saturation binding) was “approximately 3.5 fold”. The “Receptor density for [^3H]BPA, B max” value [19] was 13.6±0.41 nmol/mg protein, the “Receptor density for [^3H]BPA, B max” value [20] was 6.35±0.57 nmol/mg protein and the “Receptor density for [^3H]BPA, B max” value [21] was 2.87±0.34 nmol/mg protein.
